This data set in a line: Mammalian cell cytotoxicity, summary over both cell lines. As to conditions: human. The data set is classed as cell-based.

In turn, `Cl.N=C(N)N/N=C/c1ccc(-c2ccc(/C=N/Nc3ccc(F)cc3)cc2)cc1` [Compound 7Ac] showed an IC50 of 4.4 to 13.9 µg/mL.

The record behind these values is publication PMC5164969 (Bioorganic & medicinal chemistry, 2016).
